From ChEMBL document CHEMBL1132575 (J Med Chem, 1999)

The chains behind the UniProt entries cited, without tags or fusion partners.
UniProt P28222, whole entry: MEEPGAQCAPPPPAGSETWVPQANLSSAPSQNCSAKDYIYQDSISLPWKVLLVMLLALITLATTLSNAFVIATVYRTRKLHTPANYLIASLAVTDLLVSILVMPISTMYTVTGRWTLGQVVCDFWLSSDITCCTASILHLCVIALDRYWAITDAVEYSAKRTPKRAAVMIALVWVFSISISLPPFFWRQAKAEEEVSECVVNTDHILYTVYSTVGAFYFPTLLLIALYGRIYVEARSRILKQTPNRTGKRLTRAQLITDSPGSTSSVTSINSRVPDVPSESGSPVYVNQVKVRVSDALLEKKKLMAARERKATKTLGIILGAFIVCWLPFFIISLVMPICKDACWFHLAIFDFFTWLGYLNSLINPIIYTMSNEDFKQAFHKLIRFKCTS

Target: 5-hydroxytryptamine receptor 1B (Homo sapiens, UniProt P28222)
Assay: In vitro receptor binding affinity for cloned human 5-hydroxytryptamine 1B receptor

CN[C@@H]1CCc2[nH]c3ccc(C(N)=O)cc3c2C1 [FROVATRIPTAN]
Ki: 10.3 nM
